Results on one compound are retold here after ChEMBL document CHEMBL4130492, “Tying up tranylcypromine: Novel selective histone lysine specific demethylase 1 (LSD1) inhibitors” (Eur J Med Chem, 2017).

Amino acid sequences for entries named in this document (tags omitted).
UniProt P27338, whole entry: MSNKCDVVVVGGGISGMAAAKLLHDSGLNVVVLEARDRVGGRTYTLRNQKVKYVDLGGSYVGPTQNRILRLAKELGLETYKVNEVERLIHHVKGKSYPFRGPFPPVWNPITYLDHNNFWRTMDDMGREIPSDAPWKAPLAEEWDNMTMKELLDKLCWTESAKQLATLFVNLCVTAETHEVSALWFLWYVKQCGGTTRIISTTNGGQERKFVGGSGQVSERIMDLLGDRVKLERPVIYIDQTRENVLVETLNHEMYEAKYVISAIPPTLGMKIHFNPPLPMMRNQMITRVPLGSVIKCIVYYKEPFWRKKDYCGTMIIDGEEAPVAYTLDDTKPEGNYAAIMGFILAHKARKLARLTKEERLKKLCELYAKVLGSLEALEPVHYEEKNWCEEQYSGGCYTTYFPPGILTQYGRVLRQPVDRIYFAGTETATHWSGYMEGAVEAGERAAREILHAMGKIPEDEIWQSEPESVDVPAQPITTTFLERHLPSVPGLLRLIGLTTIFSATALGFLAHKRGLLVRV

Usually IC50 stands for the concentration that gives 50% inhibition. Higher therefore signals weaker potency.

The assay deals with Amine oxidase [flavin-containing] B (Homo sapiens, UniProt P27338). The experiment in a line: biochemical.

SMILES strings stand for the structures.

Compound `NC1CCC(N[C@@H]2C[C@H]2c2ccccc2)CC1` (stereo partly specified) came in with a 50% inhibitory concentration (IC50) of over 100 µM.
